# Test results: patent publication EP4570800A1, “CRYSTAL FORM OF PYRIDINOPYRIMIDINONE COMPOUND, ACID SALT THEREOF, CRYSTAL FORM OF ACID SALT THEREOF, AND USE” (Wuhan Humanwell Innovative Drug Research and Development …, priority 2022, dated 2024)
# System: NCI-H1975 non-small cell lung cancer
# Test: In vivo efficacy test of NCI-H1975 non-small cell lung cancer (combination with osimertinib)
# Design: species or system mice
# Details: 1 mg/kg, QD
# Protocol: NCI-H1975 tumor cells were cultured in an incubator at 37°C and 5% CO2 using medium containing inactivated RPMI 1640 + 10% FBS. After reaching a confluency rate of 80 to 90%, the cells were passaged by subculturing. After one week of adaptive feeding in mice, NCI-H1975 cells in logarithmic phase were inoculated subcutaneously into the right flank of mice at a concentration of 5 × 10^6/100 µL. Tumor growth was regularly monitored until the tumors reached an average volume of 100 to 150 mm^3. […] Tumor size and animal weight were measured and recorded before and during the administration process. The differences in tumor size between the model group and administration group were compared to determine the efficacy.
smiles,measurement,value
C=CC(=O)Nc1cc(Nc2nccc(-c3cn(C)c4ccccc34)n2)c(OC)cc1N(C)CCN(C)C [Osimertinib],Tumor weight inhibition rate (relative to the vehicle group),22%
